Source: patent publication US20110082114A1, “Methods of Treating Aneurysmal Dilatation, Blood Vessel Wall Weakness and Specifically Abdominal Aortic and Thoracic Aneurysm Using Matrix Metalloprotease-2 Inhibitors” (SYMPHONY EVOLUTION, INC., priority 2009, published 2011)
pIC50: −log10 of the molar value.

Molecular target: T1, mADAM-10 or hADAM-10 (UniProt O14672)
T1 sequence (O14672 1-748): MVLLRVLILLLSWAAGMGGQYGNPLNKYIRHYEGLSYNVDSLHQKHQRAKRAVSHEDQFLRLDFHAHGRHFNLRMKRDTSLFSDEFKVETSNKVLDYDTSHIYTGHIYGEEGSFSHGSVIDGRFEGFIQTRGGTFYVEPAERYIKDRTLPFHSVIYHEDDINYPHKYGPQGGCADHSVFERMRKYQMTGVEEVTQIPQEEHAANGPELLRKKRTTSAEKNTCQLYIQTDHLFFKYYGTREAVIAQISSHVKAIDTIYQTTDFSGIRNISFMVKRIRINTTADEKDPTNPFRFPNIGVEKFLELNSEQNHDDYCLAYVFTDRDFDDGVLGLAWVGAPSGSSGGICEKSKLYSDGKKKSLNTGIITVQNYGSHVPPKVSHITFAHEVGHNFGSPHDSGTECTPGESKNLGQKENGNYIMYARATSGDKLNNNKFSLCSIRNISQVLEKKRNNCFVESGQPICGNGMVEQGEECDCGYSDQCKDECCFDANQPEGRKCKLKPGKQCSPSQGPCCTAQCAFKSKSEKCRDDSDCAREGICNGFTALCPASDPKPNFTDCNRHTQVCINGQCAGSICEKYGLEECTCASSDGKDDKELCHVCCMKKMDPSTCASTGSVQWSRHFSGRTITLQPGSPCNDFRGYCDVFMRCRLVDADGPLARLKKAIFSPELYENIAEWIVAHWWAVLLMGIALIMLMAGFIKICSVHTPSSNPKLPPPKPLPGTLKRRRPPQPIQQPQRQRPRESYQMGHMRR
Experiment: ADAM-10 enzyme assay (fluorogenic peptide cleavage);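 also: fluorescence from cleavage of a quenched 10-residue DABCYL/EDANS peptide by 5 nM enzyme in HEPES pH 8.0 buffer, 16 hr at room temperature, compounds serially diluted 100 µM to 0.5 nM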
Type: biochemical

COCCOC(=O)N1CCN(S(=O)(=O)c2cc(F)c(Oc3ccc(Cl)cc3)c(F)c2)[C@@H](C(=O)NO)C1 [Entry 15]
pIC50: > 7.30
